Values quoted from earlier work as cited in US20050182002A1, “Agents which interact with a serotonin transporter for the treatment of cancer” (priority 2002, published 2005).

Test system: neuronal SERT
Conditions: read-out: known IC50 values for blocking 5-HT uptake by neuronal SERT; cited from earlier work

For Fc1ccc([C@@H]2CCNC[C@H]2COc2ccc3c(c2)OCO3)cc1 [paroxetine], the IC50 is listed as 0.29 nM.
